Data set [1] is described as follows: Oral gavage PK study of Lys-Amp and hArg-Amp, plasma d-amphetamine by ELISA (Example 7). Conditions: rat, […] d-amphetamine freebase equivalent.
For data set [2] the following is noted: rat, oral; plasma d-amphetamine.
The nature of data set [3]: Average of 4 oral PK studies of Lys-Amp and hArg-Amp (Example 7, Table 3). Conditions: average of 4 oral studies, n=20.
Data set [4] is described as follows: Oral PK study of Lys-Amp, hArg-Amp, Orn-Amp and Cit-Amp (Example 9). Conditions: rat.

Here are results for one molecule from patent US20090234018A1, “Non-Standard Amino Acid Conjugates of Amphetamine and Processes for Making and Using the Same” (priority 2006, published 2009).

Where two headings read alike, the source gives them in different places.

Consider `C[C@@H](Cc1ccccc1)NC(=O)[C@@H](N)CCCCN=C(N)N.Cl.Cl` [hArg-Amp, l-homoarginine-d-amphetamine dihydrochloride], for which the Tmax in data set [1], in data set [2] and in data set [3] was 4 h each time. Besides, in data set [4], the “Tmax compared to Lys-Amp” value is given as “significantly shifted the Tmax”.
